# Values quoted from earlier work as cited in patent US6321750A, “Condom lubricants with zinc salts as anti-viral additives” (priority 1999, dated 2001).
# Conditions: water; cited from earlier work
substance,measurement,value
Zinc gluconate,Molar solubility,280 mM
same,Solubility,127 grams/liter
